Reference: PubChem BioAssay AID624467 (The Scripps Research Institute Molecular Screening Center, 2012)
This is a selection; strong and weak results do not stand in their true shares. Active and inactive are the calls of the source.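 Rule for the calls: active = activation above the mean activation of all test compounds in the run plus 3 SD (cut at about 38% in these data); inactive = the rest.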

By UniProt entry, the sequences of proteins in these tests, tags left out.
UniProt Q96RJ0, whole entry: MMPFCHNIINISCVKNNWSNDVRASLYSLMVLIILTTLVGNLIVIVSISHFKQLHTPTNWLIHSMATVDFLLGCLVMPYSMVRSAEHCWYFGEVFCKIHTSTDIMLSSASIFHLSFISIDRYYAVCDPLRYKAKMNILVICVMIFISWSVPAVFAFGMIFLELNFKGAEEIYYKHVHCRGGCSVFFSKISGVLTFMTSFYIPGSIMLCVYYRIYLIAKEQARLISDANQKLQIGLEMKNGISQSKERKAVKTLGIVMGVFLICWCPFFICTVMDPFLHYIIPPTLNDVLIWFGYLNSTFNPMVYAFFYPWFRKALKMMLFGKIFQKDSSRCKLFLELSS

molecular target: Trace amine-associated receptor 1 (Homo sapiens) (UniProt Q96RJ0); test: human TAAR1 agonists, primary screen, Fluo-8 calcium fluorescence, CHO RD-HGA16 cells (AID 624467); conditions: CHO RD-HGA16 TAAR1, Fluo-8 calcium fluorescence; at 3 µM; hits give high values; vehicle wells 0%, saturating PEA agonist 100%

Row | Compound | activation
1 | CCC(=O)N(c1ccccc1)C1(COC)CCN(CCc2cccs2)CC1 | inactive: -0.52%
2 | CCC(=O)N(c1ccccc1)C1(COC)CCN(CCn2nnn(CC)c2=O)CC1 | inactive: 2.39%
